Data from paper PMC3471877 (PLoS ONE, 2012).

Protein sequences, listed by entry. Tags and fused reporters are not part of them. Residues count along the entry.
UniProt P25101, 21-427: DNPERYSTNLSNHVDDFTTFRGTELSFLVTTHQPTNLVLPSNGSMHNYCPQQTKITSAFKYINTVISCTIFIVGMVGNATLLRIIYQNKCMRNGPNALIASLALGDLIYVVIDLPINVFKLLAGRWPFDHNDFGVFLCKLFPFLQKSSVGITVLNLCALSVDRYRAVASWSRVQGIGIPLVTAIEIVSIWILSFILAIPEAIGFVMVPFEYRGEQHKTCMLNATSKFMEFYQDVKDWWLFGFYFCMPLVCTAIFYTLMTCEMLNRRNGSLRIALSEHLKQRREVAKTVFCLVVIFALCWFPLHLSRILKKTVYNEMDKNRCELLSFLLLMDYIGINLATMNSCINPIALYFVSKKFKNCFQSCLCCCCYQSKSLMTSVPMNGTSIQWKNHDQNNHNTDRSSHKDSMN

What was measured:
[1] = target: ET receptors in human primary PASMC (Homo sapiens, UniProt P25101); experiment: cell-based; settings: ET-1 EC50–EC70
recombinant ETA receptor = recombinant ETA receptor (Homo sapiens, UniProt P25101); experiment: cell-based

Q: For COc1nc(C)cnc1NS(=O)(=O)c1cccnc1-c1ccc(-c2nnco2)cc1 [zibotentan], which Kb ([1]; Kb 10 min, 10 min antagonist pre-incubation, geometric mean n = 6) is on record?
A: Its Kb is 0.65 nM.

Q: And the Kb ([1]; Kb 120 min, 120 min antagonist pre-incubation (steady state), geometric mean n = 6)?
A: The Kb was 0.87 nM.

Q: What about the Kb ([1]; Kb PASMC, Table 1, 120 min antagonist pre-incubation, from IC50 via Cheng-Prusoff, geometric mean n = 3–8) of the same compound?
A: Its Kb is 0.87 nM.

Q: And the Kb (recombinant ETA receptor)?
A: Its Kb is 8.5 nM.
